# Measurements taken from US7862836B2, “Phosphorus binder for treatment of kidney disease” (Biolink Life Sciences, Inc., priority 2005, dated 2011).
# Assay: Solubility in water of cationic phosphate binders (Table 1)
substance,measurement,value
Calcium Gluconate,Hydrophile?,Yes
